Results: patent US10377789B2, “Oligonucleotide and artificial nucleoside having guanidine bridge” (OSAKA UNIVERSITY, priority 2012, dated 2019)

By UniProt entry, the sequences of proteins in these tests, tags left out. Residues count along the entry.
UniProt J3SEZ3, 24-851 limits assumed: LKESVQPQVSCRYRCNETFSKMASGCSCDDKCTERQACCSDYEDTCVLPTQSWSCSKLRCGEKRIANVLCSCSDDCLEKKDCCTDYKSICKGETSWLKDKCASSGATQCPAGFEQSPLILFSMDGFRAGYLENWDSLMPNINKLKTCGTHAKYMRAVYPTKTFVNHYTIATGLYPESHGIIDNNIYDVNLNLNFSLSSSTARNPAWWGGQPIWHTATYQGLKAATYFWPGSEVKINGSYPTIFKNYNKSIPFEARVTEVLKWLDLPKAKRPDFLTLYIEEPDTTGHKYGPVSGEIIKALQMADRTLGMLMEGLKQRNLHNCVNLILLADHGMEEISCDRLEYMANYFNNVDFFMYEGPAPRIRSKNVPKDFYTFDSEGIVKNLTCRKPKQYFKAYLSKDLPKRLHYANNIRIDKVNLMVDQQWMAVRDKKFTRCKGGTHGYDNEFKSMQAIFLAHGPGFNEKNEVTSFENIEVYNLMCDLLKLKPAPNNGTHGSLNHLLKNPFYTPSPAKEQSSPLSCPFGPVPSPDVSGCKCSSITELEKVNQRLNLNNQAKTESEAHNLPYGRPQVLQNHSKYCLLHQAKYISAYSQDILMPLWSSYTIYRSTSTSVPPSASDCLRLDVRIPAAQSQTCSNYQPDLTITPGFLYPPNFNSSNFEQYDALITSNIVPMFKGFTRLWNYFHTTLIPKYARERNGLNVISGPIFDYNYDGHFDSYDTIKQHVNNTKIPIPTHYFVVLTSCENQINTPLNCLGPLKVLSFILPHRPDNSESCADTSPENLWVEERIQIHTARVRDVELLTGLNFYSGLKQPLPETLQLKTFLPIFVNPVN

Biological target: 3′-exonuclease (Crotalus admanteus venom phosphodiesterase: CAVP) (Crotalus adamanteus, UniProt J3SEZ3)

How did the “percentage of unreacted oligonucleotides” value turn out when 5′-d(TTTTTTTTT)-3′ [Compound 13] was run?
The value was at least 50%.
